Source: patent US20060106064A1, “Butyrophenones and sigma-1 receptor antagonists protect against oxidative-stress” (University of North Texas Health Science Center at Fort …, priority 2004, published 2006)

Chains of the proteins cited; added tags and fusions are not shown.
UniProt Q99720, whole entry: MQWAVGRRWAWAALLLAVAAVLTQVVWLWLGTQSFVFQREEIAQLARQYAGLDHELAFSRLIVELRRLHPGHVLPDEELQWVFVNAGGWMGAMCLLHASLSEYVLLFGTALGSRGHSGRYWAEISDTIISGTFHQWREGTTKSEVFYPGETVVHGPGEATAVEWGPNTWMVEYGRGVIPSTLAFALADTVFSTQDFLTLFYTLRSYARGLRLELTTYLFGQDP

Target: human Sigma-1 receptor (Homo sapiens, UniProt Q99720)
Assay: [3H]-(+)-pentazocine binding to MCF-7 cells stably expressing the cloned human Sigma-1 receptor
Settings: read-out: Affinity for the cloned Sigma-1 receptor (Ki ± SEM); Table 4

## Clc1ccc(N2CCN(Cc3c[nH]c4ncccc34)CC2)cc1 [L745870, 3-((4-(4-Chlorophenyl)piperazin-1-yl)-methyl)-1H-pyrrolo-2,3-b-pyridine]
  Ki: 63 ± 13 nM
